Biological target: rabbit skeletal muscle myosin II (rabbit) (UniProt Q28641)

rabbit skeletal muscle F-actin, pyrene-labeled (from UniProt P68135 1-377) (natural protein)
actin activated myosin ATPase activity, myosin alone: KM: 1.15 µM
actin activated myosin ATPase activity, myosin alone: Vmax: 2.39 s⁻¹
actin activated myosin ATPase activity, myosin and HGAL: KM: 1.39 µM
actin activated myosin ATPase activity, myosin and HGAL: Vmax: 2.49 s⁻¹

— PMC3097272
